pIC50: −log10 of the molar value.
Assays:
[1] = system: SKOV-3 human ovarian adenocarcinoma xenograft; assay: SK-OV-3 human ovarian xenograft antitumor efficacy; format: in vivo, CB17 SCID mice; settings: SK-OV-3 xenograft
SK-OV-3 cancer cell line = assay: MTT assay, cytostatic/cytotoxic effects, SK-OV-3
[2] = system: UWB1.289 cancer cell line; assay: MTT assay, cytostatic/cytotoxic effects, UWB1.289
[3] = system: UWB1.289+BRCA1 cancer cell line; assay: MTT assay, cytostatic/cytotoxic effects, UWB1.289+BRCA1
OVCAR-5 cancer cell line = assay: MTT assay, cytostatic/cytotoxic effects, OVCAR-5
[4] = system: OVCAR-5 human ovarian adenocarcinoma xenograft; assay: OVCAR-5 human ovarian xenograft antitumor efficacy; format: in vivo, CB17 SCID mice; settings: OVCAR-5 xenograft
OVCAR-3 cancer cell line = assay: MTT assay, cytostatic/cytotoxic effects, OVCAR-3
[5] = time to tumor volume growth >20%

O=C(O)CCOc1ccc(N(CCCl)CCCl)cc1
Median Overall Survival (OS) ([1]; from tumor inoculation (D0)): 49 days | Progression Free Survival (PFS) [1, 5]: 0 days | TGI (Total Growth Inhibition) (SK-OV-3 cancer cell line; SK-OV-3, 48 h treatment): >100 μΜ | GI50 (SK-OV-3 cancer cell line; read-out: GI50 (50% Growth Inhibition), SK-OV-3, 48 h treatment): 50 µM | pIC50 (SK-OV-3 cancer cell line; read-out: IC50 (cytotoxic effect), SK-OV-3, 48 h treatment): < 4.00 | TGI (Total Growth Inhibition) ([2]; UWB1.289, 48 h treatment): 86 ± 7.4 μΜ | GI50 ([2]; read-out: GI50 (50% Growth Inhibition), UWB1.289, 48 h treatment): 22 µM | pIC50 ([2]; read-out: IC50 (cytotoxic effect), UWB1.289, 48 h treatment): < 4.00 | TGI (Total Growth Inhibition) ([3]; UWB1.289+BRCA1, 48 h treatment): >100 μΜ | GI50 ([3]; read-out: GI50 (50% Growth Inhibition), UWB1.289+BRCA1, 48 h treatment): > 100 µM | pIC50 ([3]; read-out: IC50 (cytotoxic effect), UWB1.289+BRCA1, 48 h treatment): < 4.00 | TGI (Total Growth Inhibition) (OVCAR-5 cancer cell line; OVCAR-5, 48 h treatment): 87 ± 7.8 μΜ | GI50 (OVCAR-5 cancer cell line; read-out: GI50 (50% Growth Inhibition), OVCAR-5, 48 h treatment): 52 µM | pIC50 (OVCAR-5 cancer cell line; read-out: IC50 (cytotoxic effect), OVCAR-5, 48 h treatment): < 4.00 | Median Overall Survival (OS) ([4]; from tumor inoculation (D0)): 57 days | MST (mean survival time) ([4]; single i.p. dose on d-1): 59.7 ± 3.3 days | T/C% (mean survival time of treated versus saline controls) ([4]; single i.p. dose on d-1): 118.3% | Progression Free Survival (PFS) [4, 5]: 0 days | TGI (Total Growth Inhibition) (OVCAR-3 cancer cell line; OVCAR-3, 48 h treatment): 92 ± 7.5 μΜ | GI50 (OVCAR-3 cancer cell line; read-out: GI50 (50% Growth Inhibition), OVCAR-3, 48 h treatment): 56 µM | pIC50 (OVCAR-3 cancer cell line; read-out: IC50 (cytotoxic effect), OVCAR-3, 48 h treatment): < 4.00

Reference: article PMC7281072 (Cancers, 2020)
